Consider 1 substance from US8911805B2, “Calcium preparation and method of production thereof” (Toyo Suisan Kaisha, Ltd., priority 2010, dated 2014).

This series can be described thus: Test for confirming solubility rate (time until transparent in water). Format: physicochemical. The following applies: 300 rpm, calcium concentration 50 mM.

Values joined by “and” are separate entries in the source; they are usually repeats but may differ in a detail not shown here. Equal values may be shown once.

For calcium gluconate, the “Dissolution time, Average” value (average of three runs, 50 mL DW) was found to be 446.7 s. In addition, the Dissolution time (single runs 1-3, 50 mL DW) was 450 s and 433 s and 457 s.
